Patent publication US8729047B2, “Compositions for inhibiting redox-sensitive GTPases” (Board of Regents, The University of Texas System, priority 2010, dated 2014)

System: A7r5 cells
Test: Viability / cytotoxicity of A7r5 cells
Type: cell-based, rat
Excerpt: FIG. 24. Effects of 6- and 8-TG on A7r5 cells. Treatment of cells with 6- or 8-TG is described in FIGS. 19 and 21. The image associated with the effect of 6- or 8-TG was taken after 5 days of treatment.

Nc1nc2nc[nH]c2c(=S)[nH]1 [6-TG, 6-thioguanine]
cytotoxicity, change in cell viability (6-TG-mediated apoptosis in slow-growing cells): ≤ 5%
viability / cytotoxicity of A7r5 cells (5 days of treatment, FIG. 24): minimal cytotoxicity
